# According to paper PMC6843736 (Molecular Pain, 2019):
# Experiment: Pharmacokinetic/toxicokinetic study and BBB permeability in rats
# Type: in vivo
# Conditions: male, Sprague-Dawley, rat, brain, ip, 10 mg/kg
compound,measurement,value
"CN(CCOc1ccc(CC2SC(=O)NC2=O)cc1)c1ccccn1 (stereo not shown) [Rosiglitazone, rosiglitazone, reference compound]",Tmax,1 h
